One data set concerns rat hepatocytes. Nature of the data set: Irreversible binding of tacrine-derived radioactivity to rat hepatocytes with chloroquine. The format is in vitro ADME. The settings on record: for tacrine-equivalents bound per mg hepatic protein: Tacrine + Chloroquine (100 μM). The source says: D. J. Back, H. S. Purba, C. Staiger, M. L. Orme, A. M. Breckenridge, "Inhibition of Drug Metabolism by the Anti Malarial Drugs Chloroquine and Primaquine in the Rat", BIOCHEM. PHARMACOL., Vol. 32, pp. 257-264 (1983). Ethoxyresorufin O-deethylation is selectively catalyzed by P450 1A2. C. Gleizes, C. Eeckhoutte, T. Pineau, M. Alvinerie, and P. Galtier, "Inducing Effect of Oxfendazole on Cytochrome P4501A2 in Rabbit Liver", BIOCHEM. PHARMACOL. VOL. 41, pp. 1813-1820 (1991).

Another data set relates to P450 2D6. Briefly: Tacrine as substrate of P450 2D6: co-incubation with quinidine in human liver microsomes. The settings on record: for 1-Hydroxytacrine / Tacrine: quinidine +. The format is in vitro ADME. From the text:
U. A. Meyer, J. Gut, T. Kronbach, C. Skoda, U. T. Meier, and T. Catin, "The Molecular Mechanisms of Two Common Polymorphisms of Drug Oxidation-Evidence for Functional Changes in Cytochrome P-450 Isozymes Catalysing Bufuralol and Mephenytoin Oxidation", XENOBIOTICA, Vol 16, pp 449-464 (1986). […] K. Brosen and L. F. Gram, "Quinidine Inhibits the 2-Hydroxylation of Imipramine and Desipramine but not the Demethylation of Imipramine", EUR J CLIN. PHARMACOL., Vol 37, pp 155-160 (1989).

`CCN(CC)CCCC(C)Nc1ccnc2cc(Cl)ccc12` (stereo not shown) [Chloroquine, 7-chloro-4-(4-diethylamino-1-methylbutylamino)quinoline]: in the data set on rat hepatocytes (14C-tacrine 5 μM, chloroquine 100 μM), the “inhibition of tacrine irreversible binding as well as metabolism” value is listed as “inhibition of tacrine irreversible binding as well as metabolism”. The “tacrine-equivalents bound per mg hepatic protein” value with rat hepatocytes (5 min) is 0.005 nmol; in the data set on rat hepatocytes (15 min), 0.012 nmol; with rat hepatocytes (30 min) it was 0.016 nmol; with rat hepatocytes (60 min), 0.034 nmol; in the data set on rat hepatocytes (90 min), 0.039 nmol; in the data set with rat hepatocytes (120 min), 0.041 nmol. Moreover, the “tacrine-equivalents bound per mg hepatic protein” value in the data set on rat hepatocytes (180 min) amounted to 0.046 nmol.

Take `C=C[C@H]1C[N@@]2CC[C@H]1C[C@@H]2[C@@H](O)c1ccnc2ccc(OC)cc12` [Quinidine]: the 1-Hydroxytacrine was 0 nMoles per 3 mL incubate in the data set on P450 2D6 (0 min); 0.383 nMoles per 3 mL incubate in the data set with P450 2D6 (5 min); 0.606 nMoles per 3 mL incubate in the data set on P450 2D6 (10 min); 1.067 nMoles per 3 mL incubate in the data set on P450 2D6 (20 min); 1.192 nMoles per 3 mL incubate in the data set with P450 2D6 (40 min); 1.209 nMoles per 3 mL incubate in the data set on P450 2D6 (60 min). For the same compound, the Tacrine in the data set with P450 2D6 (0 min) stood at 2.02 nMoles per 3 mL incubate; in the data set on P450 2D6 (5 min), 1.22 nMoles per 3 mL incubate; in the data set with P450 2D6 (10 min) it was 0.816 nMoles per 3 mL incubate; in the data set on P450 2D6 (20 min), 0.401 nMoles per 3 mL incubate; in the data set with P450 2D6 (40 min) it was 0.037 nMoles per 3 mL incubate; with P450 2D6 (60 min), 0.033 nMoles per 3 mL incubate. In the data set with P450 2D6 (co-incubation), the “effect on irreversible binding of tacrine to human hepatic microsomal proteins” value is reported as “not effected”. For the same compound, in the data set on P450 2D6 (human liver microsomes), the “effect on conversion of tacrine to 1-hydroxytacrine” value is recorded as “did not inhibit”.
